Laboratory results from PubChem BioAssay AID622 (Vanderbilt High Throughput Screening Facility, 2007).
The list shows a part of the results, in another mix than the full data. Activity calls are given as the source filed them.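 The calls were made as follows: active = fluorescence slope higher than the sample average by over 3 SD (cut at about -0.22 in these data, passing the limit was not always enough); inactive = the rest.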

Protein sequences, listed by entry. Tags and fused reporters are not part of them.
UniProt P62483, whole entry: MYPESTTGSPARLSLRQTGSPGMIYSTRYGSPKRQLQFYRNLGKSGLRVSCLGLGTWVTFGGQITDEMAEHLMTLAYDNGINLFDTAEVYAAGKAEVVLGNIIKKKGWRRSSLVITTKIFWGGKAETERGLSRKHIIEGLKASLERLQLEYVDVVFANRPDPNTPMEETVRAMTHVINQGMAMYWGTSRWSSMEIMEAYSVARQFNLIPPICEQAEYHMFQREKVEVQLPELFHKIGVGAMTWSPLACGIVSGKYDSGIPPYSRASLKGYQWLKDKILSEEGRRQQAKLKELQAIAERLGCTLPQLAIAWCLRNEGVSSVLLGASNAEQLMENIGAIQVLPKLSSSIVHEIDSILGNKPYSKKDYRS

target: Voltage-gated potassium channel subunit beta-2 (Rattus norvegicus) (UniProt P62483); assay: KvBeta enzyme negative modulators, primary screen, biochemical, NADPH fluorescence (AID 622); conditions: recombinant KvBeta, 4-cyanobenzaldehyde reduction, at 10 µM, active compounds read high;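 also: slope of raw intensity against log time taken from 70 to 1610 s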

Row | Structure (SMILES) | fluorescence slope
1 | CN(C)CCOC(=O)C(O)(c1ccccc1)C1CCCCC1 (stereo unspecified) | inactive: -0.504
2 | CP(=O)(Nc1ccc2c(c1)OCCO2)Oc1ccccc1 (stereo unspecified) | inactive: -0.305
3 | CCN(CC)CC(O)COC(=O)C(O)(c1ccccc1)C1CCCCC1 (stereo unspecified) | inactive: -0.498
4 | CP(=O)(Nc1ccccn1)Oc1ccccc1 (stereo unspecified) | inactive: -0.381
5 | CP(=S)(Nn1cnnc1)Oc1ccccc1 (stereo unspecified) | inactive: -0.612
6 | Cc1ccc(C)c(NP(C)(=O)Oc2ccccc2)c1 (stereo unspecified) | inactive: -0.449
